The record followed here is patent US6350747B1, “3-(anilinomethylene) oxindoles” (Glaxo Wellcome Inc., priority 1999, dated 2002).

The target of the assay is T1, CDK2 (Homo sapiens, UniProt P24941).
T1 construct: made in house
Briefly: CDK2 cyclin dependent protein kinase assay. In kind it is biochemical. Conditions: read-out: CDK2 kinase inhibition IC50. As for the experimental part:
Cyclin dependent protein kinase assays utilized the peptides Biotin-aminohexyl-[…] and Biotin-aminohexyl-[…]-NH2 as phosphoryl group acceptors. CDK1 and CDK2 were both expressed utilizing a baculovirus expression system and were partially purified to comprise 20-80% of total protein, with no detectable competing reactions present. Typically, assays were performed by incubating either enzyme (0.2-10 nM), with and without inhibitor, one of the two peptide substrates ([…]), [γ-^32P]ATP ([…]), and 10-20 mM Mg^2+ for periods of time generally within the range 10-120 min. Reactions were terminated with 0.2-2 volumes of either 20% acetic acid or 50-100 mM EDTA buffered to pH 7 (substrate consumption<20%). The buffer employed in enzyme assays was either 30 mM HEPES 7.4 containing 0.15 M NaCl and 5% DMSO, the buffer 50 mM MOPS 7.0 containing 0.15 M NaCl and 5% DMSO, or the buffer 100 mM HEPES pH 7.5 containing 0.1 mg/mL BSA and 5% DMSO. Inhibitors were diluted in 100% DMSO prior to addition into the assay. […]

As to `CCC1(c2ccc(N/C=C3\C(=O)Nc4ccc5ncsc5c43)cc2)CCC(=O)NC1=O` (centres unmarked) [Example 48, 3-Ethyl-3-(4-{(Z)-[(7-oxo-6,7dihydro-8H-[1,3]thiazolo[5,4-e]indol-8-ylidene)methyl]amino}phenyl)-2,6-piperidinedione], the IC50 lay within 11 to 50 nM.
Then `CC(=O)N(C)c1ccc(N/C=C2\C(=O)Nc3ccc4ncsc4c32)cc1` [Example 58, N-Methyl-N-(4-{(Z)-[(7-oxo-6,7-dihydro-8H-[1,3]thiazolo[5,4-e]indol-8-ylidene)methyl]amino}phenyl)acetamide], with 11 to 50 nM.
